B1: SB10: anti-CDCP1 antibody by single B cell technique; VH SEQ ID NO: 280, VL SEQ ID NO: 330 (antibody, V domains shown)
VH: QVTLKESGPGILQPSQTLSLTCSFSGFSLSTSGMGVSWFRQPSGKGLEWLAHIYWDDDKRYNPSLKSRLTISKDTSSNQVFLRITNVDTSDTATYYCTREGSADWEALDYWGQGTSVTVSS
VL: DVLMTQTPLSLSVSLGDQASISCRSSQTIVYSNGNSYLEWYLQKPGQSPKLLIYKVSNRFSGIPDRFSGSGSGTDFTLKISRVEAEDLGIYYCFQSSHVPWTFGGGTKLEIK
modifications: SB10 heavy chain variable region; SB10 light chain variable region
B2: SB11: anti-CDCP1 antibody by single B cell technique; VH SEQ ID NO: 281, VL SEQ ID NO: 331 (antibody, V domains shown)
VH: EVQLQQSGAELVKPGASVKLSCTASGFNIQDTYILWVKQRPEQGLEWIGGIDPANDNTNYGPNFQGKATITADTSSNTAYLQLSSLTSEDSAVYYCAREDAYPWFAYWGQGTLVTVSS
VL: DIVLTQSPASLAVSLGQRATISCRASQSVSTSSYSYMHWYQLKPGQPPKLLIKYASNLESGVPARFSGSGSGTDFTLNIHPVEEEDAAIYYCQHNWEIPWTFGGGTRLEIK
modifications: SB11 heavy chain variable region; SB11 light chain variable region
B3: SB13: anti-CDCP1 antibody by single B cell technique; VH SEQ ID NO: 283, VL SEQ ID NO: 333 (antibody, V domains shown)
VH: EVKLVESGGGLVQPGGSLRLSCATSGFTFSDFYMEWVRQPPGKRLEWIAVSRDKTNDYTTEYSASMKGRFIVSRDTSQSILYLQMNALRAEDTAIYYCARDGVYYYGSSYTLDYWGQGTSVTVSS
VL: DIVMTQSHKFMSTSVGDRVSITCKASQDVSSSVAWYQQKPGQSPKLLIYWASTRHTGVPDRFTGSGSGTDYTLTISSVQAEDLALYYCQQHYNTPPTFGGGTKLEIK
modifications: SB13 heavy chain variable region; SB13 light chain variable region
B4: SB14: anti-CDCP1 antibody by single B cell technique; VH SEQ ID NO: 284, VL SEQ ID NO: 334 (antibody, V domains shown)
VH: QVQLQQSGNEVVKPGASVKLSCKTSGYTFTNYWLQWVKQRPGQGLEWIGEIFPGTGTTYYNEKFKDQATVTIDTSSSTAYIHLSSLTSEDSAVYFCARTNWEGYYFDYWGQGTTLTVSS
VL: ENVLTQSPAIMSASSGEKVTMTCRASSSVRSSYLHWYQQKSGASPKVWIYSTSNLASGVPVRFSGSGSGTSYSLTISSVEAEDAATYYCQQYSGSPSWTFGGGTKLEIK
modifications: SB14 heavy chain variable region; SB14 light chain variable region
B5: SB15: anti-CDCP1 antibody by single B cell technique; VH SEQ ID NO: 285, VL SEQ ID NO: 335 (antibody, V domains shown)
VH: EVKLVESGGGLVKPGGSLKLSCAASGFTFSSYGMSWVRQTPEKRLEWVATISGGINYTYYRDSVEGRFTISRDNAKNNLYLQMSRLRSEDTALYYCARHDRYDGYYYVMDYWGQGTSVTVSS
VL: DIQMTQSPSSLSASLGERVSLTCRASQEISGYLTWLQQRPDGTIKRLIYAASTLDSGVPKRFSGSRSGSDYSLTISSLESEDFADYYCLQYASYPYTFGGGTKLEIK
modifications: SB15 heavy chain variable region; SB15 light chain variable region
B6: SB17: anti-CDCP1 antibody by single B cell technique; VH SEQ ID NO: 287, VL SEQ ID NO: 337 (antibody, V domains shown)
VH: QVTLKESGPGILQPSQTLSLTCSFSGFSLSTSGMSVGWIRQPSGKGLEWLAHIWWNDDKYYNPALKTRLTISKDSSNNQIFLKIASVVTADSATYYCARIGYYYGTYALDYWGPGTSVTVSS
VL: QIVLTQSPALMTASPGEQVTMTCSASSSVSYIHWYQQKSGTSPKRWIYDASKLASGVPARFSGSGSGTSYSLTISSMEAEDAATYYCQQWSSYPLTFGGGTKLELK
modifications: SB17 heavy chain variable region; SB17 light chain variable region
B7: SB18: anti-CDCP1 antibody by single B cell technique; VH SEQ ID NO: 288, VL SEQ ID NO: 338 (antibody, V domains shown)
VH: QVTLKESGPGILQPSQTLSLTCSFSGFSLTTSGMNVGWLRQPSGKGLEWLAHIWWNDDKHSNPVLKSRLTISKDTSNNQAFLKIANVVTADSATYYCARLRDGGFAYWGQGTLVTVSA
VL: DIQMTQTTSSLSASLGDRVTISCSASQAISNYLNWYQQKPDGTVKLLIYYTSHLHSGVPSRFSGSGSGTDYSLTISNLEPEDIATYYCQQYSKIPWTFGGGTKLEII
modifications: SB18 heavy chain variable region; SB18 light chain variable region

These molecules were tested on MDA-MB-231 cells (assay: Endocytosis capacity of single B cell antibodies). Conditions: MDA-MB-231, 2 h at 37° C., antibody 1.5 μg/mL.
Assay type: cell-based, human
Description: The endocytosis capacity of the antibody was detected for 0.5 to 2 hours. MDA-MB-231 cells were subjected to digestion with 5 mM EDTA, and plated at 2×10^4 cells/well after cell counting. After adding an Fc blocker (Human TruStain FcX™, Biolegend, 422302) and blocking at room temperature for 10 mins, a test antibody (1.5 μg/mL) was added, and the mixture was incubated at 4° C. for 30 mins, centrifuged, and washed twice with PBS+2% FBS, then the cells were divided into four equal portions (labeled as 0 h, 0.5 h, 1 h, 2 h), cells labeled as 0.5 h, 1 h, 2 h time points were added to 200 μL of cell culture medium, and cultured at 37° C. for 0.5 h, 1 h, 2 h, respectively. Cells at 0 h point were centrifuged, a secondary antibody (PE anti-human IgG Fc Antibody, Biolegend, 410708) was added, and the mixture was incubated at 4° C. for 30 mins, centrifuged, and washed twice with PBS+2% FBS, and detection was performed using a flow cytometer. After incubation of cells labeled as 0.5 h, 1 h, and 2 h points at 37° C. was completed, a secondary antibody was added (in the same steps as those at 0 h point), Geo-MFI of the signal under the same voltage was collected as detection signal at 0 h, and antibody internalization rate was calculated according to the following equation: Internalization (%)=(Geo-MFI (0 h)-Geo-MFI (2 h))/Geo-MFI (0 h)×100%.

| Molecule | Internalization MDA-MB-231 (%) |
| --- | --- |
| B1 | 87.72 |
| B2 | 18.52 |
| B3 | 50.12 |
| B4 | 80.03 |
| B5 | 80.12 |
| B6 | 80.07 |
| B7 | 38.83 |

From patent US20260250410A1, “ANTIBODY AND USE THEREOF” (SICHUAN HUIYU PHARMACEUTICAL CO., LTD., priority 2022, published 2026)
